Columns and labels:
[1] = biological target: IL-12 receptor endogenously expressed on THP-1 cells (UniProt P42701); assay: FACS, hybridoma supernatant, THP-1
[2] = biological target: human IL-12RB2 overexpressed on 293T cells (Example 2) (human) (UniProt Q99665); assay: FACS, hybridoma supernatant, 293T
[3] = biological target: cyno IL-12RB2 overexpressed on 293T cells (Example 2) (cyno); assay: FACS, hybridoma supernatant, 293T

Fold over buffer [1]: 24 fold
Fold over parental 293T [2]: 3.4 fold
Fold over parental 293T [3]: 6 fold
Substance: 85802_10D03 (antibody)

— US20250019450A1
